Data: ChEMBL document CHEMBL2429814 (J Med Chem, 2013)

Chains of the proteins cited; added tags and fusions are not shown.
Metabotropic glutamate receptor 5 (Rattus norvegicus), P31424, UniProt P31424, whole entry Y658V: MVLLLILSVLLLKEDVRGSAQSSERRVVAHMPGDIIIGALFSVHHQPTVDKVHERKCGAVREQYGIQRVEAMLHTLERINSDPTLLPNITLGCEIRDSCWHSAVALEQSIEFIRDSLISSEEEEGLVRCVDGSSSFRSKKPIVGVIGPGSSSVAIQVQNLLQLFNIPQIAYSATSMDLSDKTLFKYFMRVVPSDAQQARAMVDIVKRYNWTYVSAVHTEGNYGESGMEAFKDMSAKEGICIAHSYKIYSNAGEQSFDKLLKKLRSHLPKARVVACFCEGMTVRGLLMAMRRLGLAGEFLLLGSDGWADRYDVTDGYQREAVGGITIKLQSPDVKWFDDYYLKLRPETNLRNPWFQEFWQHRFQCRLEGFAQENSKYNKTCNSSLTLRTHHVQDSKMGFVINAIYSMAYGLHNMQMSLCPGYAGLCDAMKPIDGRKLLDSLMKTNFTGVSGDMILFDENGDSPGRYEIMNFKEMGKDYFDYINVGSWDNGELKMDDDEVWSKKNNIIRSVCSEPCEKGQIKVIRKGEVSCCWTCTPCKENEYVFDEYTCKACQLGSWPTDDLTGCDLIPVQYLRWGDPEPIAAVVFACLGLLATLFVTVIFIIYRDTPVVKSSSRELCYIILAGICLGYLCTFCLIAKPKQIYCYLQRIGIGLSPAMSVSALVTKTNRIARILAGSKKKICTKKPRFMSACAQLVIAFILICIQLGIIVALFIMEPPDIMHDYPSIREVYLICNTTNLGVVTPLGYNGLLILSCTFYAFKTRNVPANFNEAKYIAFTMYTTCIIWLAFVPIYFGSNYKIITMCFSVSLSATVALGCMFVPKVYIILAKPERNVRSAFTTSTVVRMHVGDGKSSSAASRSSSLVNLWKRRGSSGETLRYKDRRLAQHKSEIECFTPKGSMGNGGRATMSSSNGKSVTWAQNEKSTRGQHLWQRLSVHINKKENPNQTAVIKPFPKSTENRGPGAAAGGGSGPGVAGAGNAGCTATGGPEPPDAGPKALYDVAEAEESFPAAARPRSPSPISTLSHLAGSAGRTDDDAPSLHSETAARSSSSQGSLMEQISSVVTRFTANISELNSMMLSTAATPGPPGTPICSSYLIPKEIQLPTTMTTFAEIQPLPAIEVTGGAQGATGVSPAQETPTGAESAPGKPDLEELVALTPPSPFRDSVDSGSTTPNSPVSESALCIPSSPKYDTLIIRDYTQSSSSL

What was measured:
[1] = test system: Metabotropic glutamate receptor 5 (Rattus norvegicus), P31424 [Y658V]; format: functional, cell-based; settings: HEK293, 1 to 100 uM
[2] = test system: Metabotropic glutamate receptor 5 (Rattus norvegicus), P31424 [Y658V]; format: cell-based; settings: HEK293

In the case of `C[C@@H](NC(=O)c1ccc(C#Cc2ccccn2)cn1)C(C)(C)O`, the Activity [1] is reported as “inactive” and the Activity [2] is reported as “inactive”.

Calls of active or inactive are those of the source. The calls are words filed in the database; no cut-off is given here.
